This is an account of results in ChEMBL document CHEMBL1155284, “Synthesis and antibacterial activity of some new thiadiaza/triazaphospholes, thiadiaza/triaza/tetrazaphosphinines and thiadiaza/tetrazaphosphepines containing 1,2,4-triazinone moiety” (Eur J Med Chem, 2009).

The data set deals with Artemia salina. Nature of the data set: Toxicity against Artemia salina larvae after 24 hrs. The class given is organism-based. The conditions noted are these: in vivo. The method, boiled down: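 Brine shrimp lethality test. Artemia salina eggs were hatched 48 h at 37 °C in filtered sea salt solution (38 g/L) with constant oxygen to give nauplii. Stock was 10 mg compound in 2 mL DMSO, diluted to 80, 40, 20, 10 and 5 µg/mL in triplicate vials, about 10 nauplii each, with a DMSO control. LC50 is the mean of three values.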

≈ marks a conversion by molar mass, not a printed value.

As to `CCOP1(=O)C(C)NN=C2N(N)C(=O)C(C)=NN21` (stereo unspecified), the LC50 came to 25.9 mg/L (≈ 94.6 µM).
